How the values of this data set were obtained: Female SCID beige mice (10/group), obtained from Charles River Laboratories (Wilmington, DE) were used when they were approximately 8-12 weeks old and weighed approximately 20-25 grams. The health of the mice was assessed daily by gross observation and analyses of blood samples taken from sentinel animals housed on shared shelf racks. All animals were allowed to acclimate and recover from any shipping-related stress for a minimum of 72 hours prior to experimental use. Autoclaved water and irradiated food (5058-ms Pico Lab mouse chow, Purina Mills, Richmond, IN) were provided ad libitum, and the animals were maintained on a 12 hour light and dark cycle. Cages, bedding and water bottles were autoclaved before use and changed weekly. All animal experiments were conducted in accordance with the Guide for the Care and Use of Laboratory Animals, local regulations, and protocols approved by the Roche Animal Care and Use Committee in an AAALAC accredited facility.
Treatment duration was 3 weeks.
For increased life span (ILS) assessment, animal body weights were measured two to three times per week, and animals were monitored daily for any clinical signs of toxicity or excessive tumor burden (i.e. hind limb paralysis or morbidity). In addition, progression of disease was monitored by in vivo bioluminescent imaging (BLI) using IVIS® Spectrum system. For each BLI session, mice received 100 mg/kg D-luciferin (Caliper Life Sciences/Perkin-Elmer) via ip injections and were imaged at 20 min post luciferin injection at either a 5 s or a 10 s exposure time. Images were captured by the IVIS® Spectrum system and data were collected and analyzed with Living Image 4.2.0 software (Caliper Life Sciences, Hopkinton, MA). Total photon fluxes (ph/s) representing luciferase activity within each fixed region of interest (ROI) covering whole tumors of individual mice were determined. The actual images of mice are not disclosed herein.
Weight loss was graphically represented as percent change in mean group body weight, using the formula: ((W−W0)/W0)×100, where ‘W’ represents mean body weight of the treated group at a particular day, and ‘W0’ represents mean body weight of the same treated group at initiation of treatment.

Where [1] appears, read: compound I-B 437 mg/kg q7d iv, 10/group.

Turning to “4-{[(2R,3S,4R,5S)-3-(3-Chloro-2-fluoro-phenyl)-4-(4-chloro-2-fluoro-phenyl)-4-cyano-5-(2,2-dimethyl-propyl)-pyrrolidine-2-carbonyl]-amino}-3-methoxy-benzoic acid 1-mPEG-carbonyloxy-ethyl ester (mPEG, average MW, 2200) [compound I-B]”, where the note is “compound I-B 437 mg/kg q7d iv”, the “% Change in Body Weight at Day 17” value was −2.8%. Besides, under setting [1], the “# of animals ≥20% body weight loss” value turned out to be 0 and the Mortality came out at 1. In addition, the deaths after dosing entry (directly after iv dosing, undetermined cause) is reported as “sporadic deaths directly after iv dosing”.

The values above are taken from patent US20230381215A1, “NOVEL COMBINATION TREATMENT FOR ACUTE MYELOID LEUKEMIA (AML)” (Hoffmann-La Roche Inc., priority 2013, published 2023).
